The test has as its target T1, Calpain-1 catalytic subunit (Sus scrofa, UniProt P35750).
T1 sequence (P35750 whole entry): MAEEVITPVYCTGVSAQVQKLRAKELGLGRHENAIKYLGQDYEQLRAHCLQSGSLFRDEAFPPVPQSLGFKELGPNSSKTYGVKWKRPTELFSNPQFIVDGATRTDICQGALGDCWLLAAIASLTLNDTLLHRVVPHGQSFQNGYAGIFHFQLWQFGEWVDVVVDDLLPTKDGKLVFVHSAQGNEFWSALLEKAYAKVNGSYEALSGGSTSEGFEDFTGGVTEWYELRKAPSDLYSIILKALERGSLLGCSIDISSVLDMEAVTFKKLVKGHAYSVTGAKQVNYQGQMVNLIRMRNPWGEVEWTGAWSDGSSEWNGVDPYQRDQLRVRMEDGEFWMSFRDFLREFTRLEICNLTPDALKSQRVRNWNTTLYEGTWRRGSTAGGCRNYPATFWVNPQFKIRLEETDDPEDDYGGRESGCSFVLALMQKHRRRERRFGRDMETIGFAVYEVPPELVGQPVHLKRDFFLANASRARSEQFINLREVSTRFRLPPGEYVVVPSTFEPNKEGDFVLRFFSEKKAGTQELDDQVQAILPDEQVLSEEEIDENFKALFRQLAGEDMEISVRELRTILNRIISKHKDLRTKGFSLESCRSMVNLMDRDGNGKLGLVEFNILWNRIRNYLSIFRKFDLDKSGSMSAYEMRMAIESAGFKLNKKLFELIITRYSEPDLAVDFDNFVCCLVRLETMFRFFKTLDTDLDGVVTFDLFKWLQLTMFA
Nature of the test: Inhibition of pig erythrocyte mu-calpain by fluorometric assay.

Turning to `COC(=O)C(=O)[C@H](Cc1ccccc1)NC(=O)[C@H](CC(C)C)NC(=O)CC(c1ccccc1)c1ccccc1`, the affinity corresponds to a Ki of 2150 nM.

For orientation: Ki means the equilibrium dissociation constant of an inhibitor or competing ligand from its target. High values mean weaker binding, low ones tighter binding.

The values are drawn from ChEMBL document CHEMBL1155134, “Structural basis for the potent calpain inhibitory activity of peptidyl alpha-ketoacids” (J Med Chem, 2008).
